Screens: PubChem BioAssay, National Center for Advancing Translational Sciences (NCATS)
ClpP mod = qHTS Assay for Activators of ClpP; actives 1.9% (n = 340,000); purified B. subtilis ClpP, FRET peptide cleavage, 20 min; ATP-dependent Clp protease proteolytic subunit (Bacillus subtilis (strain 168)), P80244; Potency, µM (titrated, usually from 57.5 µM), for inactives: at the highest dose activity change, negative = active; active means well fitted falling curve with a large enough effect; inconclusive means small, poorly fitted or top-dose-only effect; inactive means no such curve, though single readings can be large or run the other way; further: potency means the concentration at half of the fitted maximal effect; the source files actives as falling curves though it sought activators and does not explain the sign; nearly all actives have a fitted effect of over 65% in size
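FRET quenching reversal measured ClpP activation: 10 microg/mL B. subtilis ClpP at pH 8 with the FRET-FV decapeptide, read at 430 nm after 320 nm excitation. The 20-min minus 0-min signal was scaled between DMSO/no-enzyme wells and ADEP (5.8 microM final).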
Nrf2 activator = activators of Nrf2 (ARE) signaling; AREc32 ARE-luciferase reporter (MCF7-derived line), luminescence, 24 h; Potency, µM (doses to about 46.1 µM), for inactives: at the highest dose activation, actives largely listed as activators; actives 0.31% (n = 410,000); AID 624171; further: potency means the concentration at half of the fitted maximal effect; % of control where 0% means no effect; nearly all actives have a fitted effect of over 65% in size
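Luciferase luminescence (Steady-Glo, 30 min at room temperature) served as the read-out of ARE activation in AREc32 cells treated with compounds for 24 hr at 37 deg C.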
IL2 activator = IL-2 activation | actives 0.065% (n = 360,000) | IL-2 activation reporter assay, cell-based qHTS; stimulated with anti-CD3/CD4/CD28 beads; in transgenic mouse T cells | activation, % (series mostly up to about 46 µM) | AID 652025; in the data active means activation above about 50%; inconclusive means mostly about 30% to 49%; further: 0% is about no effect
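Unstimulated transgenic mouse T cells preincubated 60 min with compound, then stimulated with anti-CD3/anti-CD4-coated beads plus anti-CD28 for 18 h at 37 degrees C. IL-2 response read as EGFP and DsRed fluorescence by plate cytometry.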
Nrf2 block = blocks Nrf2 signaling | actives 2.1% (n = 360,000) | A549 ARE-Fluc reporter, luciferase luminescence, 18-24 h | Potency, µM (highest dose often 46 µM), for inactives: top-dose activity change, negative = inhibition, actives largely listed as inhibitors; further: potency means the concentration at half of the fitted maximal effect; on the % scale 0 is the no-effect control and ±100 the full control effect; nearly all actives have a fitted effect of over 60% in size
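In this cell-based qHTS, ARE-driven firefly luciferase in A549 cells reports Nrf2 activity; the luminescent signal after BugLite lysis is the measured value, with a prior CellTiter-Fluor read for cell health.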
A549 tox = A549 cytotoxicity, counter-screen for Nrf2 inhibitors; A549 ARE-Fluc cells, CellTiter-Fluor viability, 18-24 h; actives 0.16% (n = 390,000); Potency, µM (top dose mostly 46 µM), without a hit: top-dose activity change, negative = cytotoxicity, actives largely listed as inhibitors; further: potency means the concentration at half of the fitted maximal effect; on the % scale 0 is the no-effect control and ±100 the full control effect
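Cytotoxicity counterscreen: CellTiter-Fluor fluorescence was measured in A549 ARE_Fluc cells after 18-24 h of compound exposure in a concentration series. The subsequent BugLite luminescent read reports ARE-luciferase activity.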
miR-21 reporter = miR-21 reporter, rising signal | HeLa miR-21 FLuc reporter, luciferase, 48 h | Potency, µM (highest dose often 38.3 µM), for inactives: at the top dose reporter change, positive = more light | 340,000 tested, under 10 active | AID 2288; active = well fitted rising curve with a large enough effect; inconclusive = small, poorly fitted or top-dose-only effect; inactive = no such curve, though single readings can be large or run the other way;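 further: % of control where 0% means no effect; miR-21 action dims this reporter so a rising signal means less miR-21 action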
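Luminescence from a firefly luciferase reporter carrying a miR-21 binding site downstream, stably expressed under a CMV promoter in HeLa cells that make miR-21 endogenously, reports miRNA modulation after 48 h compound exposure up to approximately 40uM final.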
* hit, by the source's call; ? = inconclusive; / = no result; [ ] = dose if it differs, or a comment. The list is not random: actives were taken first. Their share in the collection is about 3.7%. Unless noted, the call rests on the fitted dose curve; in most records, active means well fitted curve in the direction sought with a large enough effect; inconclusive means small, poorly fitted or top-dose-only effect, or another doubt; inactive means no such curve, though single readings can be large; an effect the other way counts as inactive or inconclusive.

Protein sequences, listed by entry. Tags and fused reporters are not part of them.
ATP-dependent Clp protease proteolytic subunit (Bacillus subtilis (strain 168)), P80244, UniProt P80244, whole entry, looked up: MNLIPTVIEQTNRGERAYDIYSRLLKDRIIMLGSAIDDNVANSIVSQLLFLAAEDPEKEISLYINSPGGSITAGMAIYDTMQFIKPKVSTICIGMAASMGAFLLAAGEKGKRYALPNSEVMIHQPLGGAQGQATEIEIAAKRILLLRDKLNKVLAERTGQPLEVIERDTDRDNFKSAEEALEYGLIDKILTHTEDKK

Screens by letter – A = ClpP mod; B = Nrf2 activator; C = IL2 activator; D = Nrf2 block; E = A549 tox; F = miR-21 reporter
#1 O=C(COc1ccccc1)NCC(c1ccc(Cl)cc1)N1CCCCC1 (centres undefined)
  A = 2%; B = 5%; C = /; D = 18%; E = -10%; F = 10%

#2 CCOC(=O)N1CCc2c(sc3c2c(=O)n(-c2ccccc2)c(=O)n3CC(=O)Nc2ccc(OC)cc2OC)C1
  A = 1%; B = 1%; C = /; D = -4%[9.27 µM]; E = 1%; F = 9%

#3 Nc1nccc(/C=C/c2c(Cl)cccc2Cl)n1
  A = /; B = 11µM*; C = -2; D = -10%; E = -1%; F = -5%

#4 COc1cc(CNCc2ccc(OC)c(OC)c2OC)cc(OC)c1
  A = -1%; B = 0%; C = -1; D = 9.2µM*; E = -4%; F = 15%

#5 COCCNC(=O)Cc1c(C)c2c(cc(C)c3c(C(C)(C)C)coc32)oc1=O
  A = 14µM*; B = 0%; C = -4; D = 3%; E = ?; F = 5%

#6 O=C(CCc1nc2ccccc2c(=O)[nH]1)Nc1nc(-c2cccs2)cs1
  A = /; B = 10µM*; C = 3; D = 2%; E = -1%; F = /

#7 COc1ccccc1/C=N\Nc1ccccc1[N+](=O)[O-]
  A = 1%; B = ?; C = 0; D = ?; E = -12%; F = -67%

#8 COc1cc(/C=N/Nc2ccc(S(N)(=O)=O)cc2[N+](=O)[O-])cc(OC)c1O
  A = 1%; B = 7%; C = -1; D = 24%; E = 1%; F = -1%

#9 CC(C)Oc1ccccc1/C=N/Nc1ccccc1[N+](=O)[O-]
  A = -2%; B = 10µM*; C = 0; D = 15%; E = -2%; F = -2%

#10 COc1cc(/C=N/Nc2ccccc2[N+](=O)[O-])cc(OC)c1O
  A = /; B = 10µM*; C = 0; D = -20%; E = -19%; F = -35%

#11 COc1cc(OC)c(OC)cc1/C=C1\CCC/C(=C\c2cc(OC)c(OC)cc2OC)C1=O
  A = /; B = 24%; C = 0; D = ?; E = ?; F = -2%

#12 COc1ccc(/C=C2\CCC/C(=C\c3ccc(OC)c(OC)c3OC)C2=O)c(OC)c1OC
  A = 0%; B = 17%; C = -2; D = 8.2µM*; E = ?; F = -2%

#13 COc1ccc2c(c1OC)CCC2=O
  A = 28µM*; B = -1%; C = -1; D = 16%; E = -7%; F = -5%

#14 Cc1ccccc1-c1nnc(CN2CCN(c3cc(Cl)ccc3C)CC2)o1
  A = -1%; B = 4%; C = /; D = -35%; E = 1%; F = -5%

#15 CCCOc1ccc(OC(=O)c2cn(-c3ccc(OC)cc3)c(=O)c3ccccc23)cc1
  A = -18%; B = -1%; C = /; D = /; E = 17%; F = 2%

An excerpt from above in order of length of the SMILES, low to high.
Screens by letter – A = ClpP mod; B = Nrf2 activator; C = IL2 activator; D = Nrf2 block; E = A549 tox; F = miR-21 reporter
#13 COc1ccc2c(c1OC)CCC2=O
  A = 28µM*; B = -1%; C = -1; D = 16%; E = -7%; F = -5%

#6 O=C(CCc1nc2ccccc2c(=O)[nH]1)Nc1nc(-c2cccs2)cs1
  A = /; B = 10µM*; C = 3; D = 2%; E = -1%; F = /

#5 COCCNC(=O)Cc1c(C)c2c(cc(C)c3c(C(C)(C)C)coc32)oc1=O
  A = 14µM*; B = 0%; C = -4; D = 3%; E = ?; F = 5%

#11 COc1cc(OC)c(OC)cc1/C=C1\CCC/C(=C\c2cc(OC)c(OC)cc2OC)C1=O
  A = /; B = 24%; C = 0; D = ?; E = ?; F = -2%

Following part:
Screens by letter – A = ClpP mod; B = Nrf2 activator; C = IL2 activator; D = Nrf2 block; E = A549 tox; F = miR-21 reporter
#16 O=c1nc2ccccc2c2n1CC(CN1CCN(Cc3ccccc3)CC1)N2 (centres undefined)
  A = 16µM*; B = 0%; C = 0; D = -1%; E = -1%; F = -2%

#17 Cc1ccc(S(=O)(=O)N(CC(=O)NC2CCCCCC2)c2ccccc2F)cc1
  A = -4%; B = 2%; C = -1; D = -11%; E = 0%; F = 0%

#18 CCOc1ccccc1N(CC(=O)NC1CCCC1)S(=O)(=O)c1ccc(C)cc1
  A = /; B = 3%; C = 2; D = 15µM*; E = -25%; F = 3%

#19 CCCCn1c(=O)nc2n(-c3ccccc3)c3ccccc3cc-2c1=O
  A = 25µM*; B = 0%; C = -1; D = /; E = 4%; F = 3%

#20 FC(F)(F)c1cccc(N2CCN(C(=S)NCC3CCCO3)CC2)c1 (centres undefined)
  A = /; B = 3%; C = 1; D = 13µM*; E = ?; F = 21%

#21 O=C(Nc1ccccc1)N1CCN(c2cccc(C(F)(F)F)c2)CC1
  A = 0%; B = -1%; C = -1; D = 23µM*; E = -16%; F = 7%

#22 CCC(C)[C@H](NC(=O)N1CCN(c2cccc(C(F)(F)F)c2)CC1)C(=O)OC (some centres undefined)
  A = -2%; B = -1%; C = -2; D = 18µM*; E = -10%; F = 20%

#23 COc1ccc(NC(=O)N2CCN(c3cccc(C(F)(F)F)c3)CC2)cc1OC
  A = -13%; B = 0%; C = 1; D = ?; E = -4%; F = 5%

#24 CC1CCc2onc(C(=O)N3CCN(c4cccc(C(F)(F)F)c4)CC3)c2C1 (centres undefined)
  A = 2%; B = 0%; C = /; D = 21µM*; E = -3%; F = 30%

#25 O=C(c1noc2c1CCCCC2)N1CCN(c2cccc(C(F)(F)F)c2)CC1
  A = -7%; B = 0%; C = /; D = ?; E = 7%; F = 11%

#26 COc1ccc(CCCc2nnc(SCC(=O)Nc3ccc(F)cc3)o2)cc1C
  A = 0%; B = -1%; C = /; D = -30%; E = 10%; F = -7%

#27 CCOC(=O)c1cc(S(=O)(=O)Nc2ccc(OC(F)(F)F)cc2)[nH]n1
  A = 0%; B = 0%; C = /; D = /; E = 2%; F = -10%

#28 Cc1ccc(C(=O)NC(C)c2ccc(F)cc2)cc1 (centres undefined)
  A = -1%; B = 0%; C = -5; D = -14%; E = 0%; F = -8%

#29 O=C(c1ccc(F)cc1)c1ccc(-c2ccc(F)cc2)nc1
  A = 1%; B = -1%; C = -2; D = 12%; E = -2%; F = -15%

#30 Cc1ccc(C(C#N)c2ccc(C(=O)c3ccc(F)cc3)cc2)cc1 (centres undefined)
  A = 1%; B = 4%; C = 1; D = 26µM*; E = -1%; F = 14%

#31 N#CC(c1ccc(F)cc1)c1ccc(C(=O)c2ccc(F)cc2)cc1 (centres undefined)
  A = -3%; B = 4%; C = 0; D = 15µM*; E = -11%; F = 13%

#32 O=c1oc2ccccc2nc1/C=C(O)/C=C\c1ccccc1
  A = 1%; B = 16µM*; C = -3; D = 3%; E = -9%; F = -31%

#33 Cc1ccc(/C(O)=C/c2nc3ccccc3oc2=O)cc1
  A = /; B = 13µM*; C = 0; D = -18%; E = -9%; F = -7%

#34 O=c1oc2ccccc2nc1/C=C(O)/C=C/c1ccc(F)cc1
  A = 1%; B = 18µM*; C = -2; D = 11%; E = -7%; F = -28%

#35 N#CC1=C(N)N(c2ccccc2)C(c2ccccc2)C1(C#N)C#N (centres undefined)
  A = 10µM*; B = 3%; C = -1; D = ?; E = -11%; F = -29%

#36 Cc1ccc(-n2c(C)cc(/C=C3\SC(=O)NC3=O)c2C)cc1
  A = 0%; B = 4%; C = 0; D = ?; E = -19%; F = -64%

#37 Cc1cc(/C=C2\SC(=Nc3ccccc3)NC2=O)c(C)n1-c1ccc(S(N)(=O)=O)cc1
  A = -4%; B = 4%; C = 7; D = /; E = 8.2µM*; F = 23%

#38 Cc1cc(-c2ccccc2)[nH]c(=O)c1S(=O)(=O)c1ccccc1
  A = 14µM*; B = 13%; C = 1; D = -22%; E = 6%; F = 9%

#39 Cc1cc(-c2ccccc2)[nH]c(=O)c1S(=O)(=O)c1ccc(Cl)cc1
  A = ?; B = 0%; C = 1; D = 3%; E = 2%; F = 0%

#40 CCN(CC)CCOc1cc2c(nn1)Oc1ccccc1N2C
  A = 13µM*; B = -1%; C = 1; D = 4%; E = 3%; F = -21%

#41 COc1ccc(Cn2c(=O)c3c(nc(NCCO)n3C)n(C)c2=O)cc1
  A = 3.5µM*; B = -1%; C = 0; D = -6%; E = 4%; F = -20%

#42 Cn1c(NCc2ccccc2)nc2c1c(=O)n(Cc1ccc(Br)cc1)c(=O)n2C
  A = -1%; B = 3%; C = 1; D = 15µM*; E = -12%; F = -6%

#43 Cn1c(=O)n(Cc2ccccc2)c(=O)c2c1nc1n2CCCN1CCc1ccccc1
  A = -8%; B = 0%; C = 0; D = 29µM*; E = -25%; F = 10%
